Measurements taken from PMC9330042, “Synthesis and Biological Studies of Novel Aminophosphonates and Their Metal Carbonyl Complexes (Fe, Ru)” (International Journal of Molecular Sciences, 2022).

Amino acid sequences for entries named in this document (tags omitted). Residues count along the entry.
UniProt O42275, 24-633: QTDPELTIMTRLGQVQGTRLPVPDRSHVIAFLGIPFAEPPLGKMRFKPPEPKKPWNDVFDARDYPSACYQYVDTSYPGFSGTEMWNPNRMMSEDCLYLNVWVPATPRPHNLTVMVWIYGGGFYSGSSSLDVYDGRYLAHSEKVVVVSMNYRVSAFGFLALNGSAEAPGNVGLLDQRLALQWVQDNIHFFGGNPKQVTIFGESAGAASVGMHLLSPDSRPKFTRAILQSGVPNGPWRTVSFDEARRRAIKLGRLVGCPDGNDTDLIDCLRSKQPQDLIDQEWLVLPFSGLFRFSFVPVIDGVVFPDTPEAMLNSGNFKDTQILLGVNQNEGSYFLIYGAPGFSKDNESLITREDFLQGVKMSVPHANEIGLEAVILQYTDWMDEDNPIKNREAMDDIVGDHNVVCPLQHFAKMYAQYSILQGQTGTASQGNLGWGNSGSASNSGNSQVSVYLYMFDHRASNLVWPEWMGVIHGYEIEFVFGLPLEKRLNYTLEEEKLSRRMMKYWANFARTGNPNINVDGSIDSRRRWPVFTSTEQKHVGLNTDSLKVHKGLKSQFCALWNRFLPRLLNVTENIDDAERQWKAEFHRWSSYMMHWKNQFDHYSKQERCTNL
UniProt P81908, whole entry: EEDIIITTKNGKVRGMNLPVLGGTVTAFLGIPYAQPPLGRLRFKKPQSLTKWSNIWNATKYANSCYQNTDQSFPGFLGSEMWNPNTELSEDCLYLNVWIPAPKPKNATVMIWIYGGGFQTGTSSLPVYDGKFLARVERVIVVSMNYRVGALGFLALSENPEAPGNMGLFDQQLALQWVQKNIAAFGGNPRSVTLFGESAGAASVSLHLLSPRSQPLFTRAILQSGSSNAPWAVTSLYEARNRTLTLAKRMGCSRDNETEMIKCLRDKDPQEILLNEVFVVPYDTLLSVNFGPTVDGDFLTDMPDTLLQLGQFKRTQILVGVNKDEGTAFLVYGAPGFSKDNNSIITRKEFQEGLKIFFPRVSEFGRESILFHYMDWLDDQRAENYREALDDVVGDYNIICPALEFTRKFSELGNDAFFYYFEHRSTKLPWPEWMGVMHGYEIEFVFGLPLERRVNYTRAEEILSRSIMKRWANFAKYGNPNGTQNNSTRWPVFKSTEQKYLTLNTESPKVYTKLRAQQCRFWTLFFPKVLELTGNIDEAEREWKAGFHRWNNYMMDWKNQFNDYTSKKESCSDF

Target: electric eel AChE (eeAChE) (Electrophorus electricus, UniProt O42275)
Assay: biochemical

**Q.** How did the IC50 turn out when `CCOP(=O)(Cc1ccccc1CN)OCC` [8a] was run?
**A.** 1.215 ± 0.006 µM

**Q.** Which IC50 does the source give for `CCOP(=O)(Cc1cccc(CN)c1)OCC` [8b] here?
**A.** > 1000 µM

**Q.** For `CCOP(=O)(Cc1ccc(CN)cc1)OCC` [8c], which IC50 is on record?
**A.** > 1000 µM

Target: BuChE (from equine serum) (Equus caballus, UniProt P81908)
Assay: biochemical

**Q.** For `CCOP(=O)(Cc1ccccc1CN)OCC` [8a], which IC50 is on record?
**A.** > 1000 µM

**Q.** With `CCOP(=O)(Cc1cccc(CN)c1)OCC` [8b] as the molecule, how does the IC50 read?
**A.** > 1000 µM

**Q.** `CCOP(=O)(Cc1ccc(CN)cc1)OCC` [8c] was tested. Which IC50 did it give?
**A.** 363 ± 29 µM
